Data as given in patent publication US7553837B2, “Phenylazole compounds production process and antioxidants” (Nippon Soda Co., Ltd., priority 2003, dated 2009).
pIC50: −log10 of the molar value.

Amino acid sequences for entries named in this document (tags omitted).
UniProt P09917, whole entry: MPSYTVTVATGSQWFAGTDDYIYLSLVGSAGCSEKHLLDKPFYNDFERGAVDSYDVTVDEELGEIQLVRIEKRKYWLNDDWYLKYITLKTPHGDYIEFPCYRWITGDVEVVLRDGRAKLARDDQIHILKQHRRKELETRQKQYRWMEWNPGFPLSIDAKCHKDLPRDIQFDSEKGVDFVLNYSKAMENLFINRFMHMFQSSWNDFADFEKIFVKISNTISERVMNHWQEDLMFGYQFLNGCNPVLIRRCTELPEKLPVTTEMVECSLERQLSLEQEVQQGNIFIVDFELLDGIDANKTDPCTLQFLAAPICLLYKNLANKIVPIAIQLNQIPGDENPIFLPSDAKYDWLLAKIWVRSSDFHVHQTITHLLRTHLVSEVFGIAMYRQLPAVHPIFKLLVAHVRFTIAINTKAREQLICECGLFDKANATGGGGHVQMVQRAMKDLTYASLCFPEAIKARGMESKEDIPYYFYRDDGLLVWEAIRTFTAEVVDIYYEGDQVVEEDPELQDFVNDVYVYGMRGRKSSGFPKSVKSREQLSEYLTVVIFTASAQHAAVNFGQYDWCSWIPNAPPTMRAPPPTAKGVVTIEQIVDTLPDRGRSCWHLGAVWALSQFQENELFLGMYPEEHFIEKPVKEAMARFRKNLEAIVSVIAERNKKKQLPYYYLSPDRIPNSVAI
UniProt P12530, whole entry: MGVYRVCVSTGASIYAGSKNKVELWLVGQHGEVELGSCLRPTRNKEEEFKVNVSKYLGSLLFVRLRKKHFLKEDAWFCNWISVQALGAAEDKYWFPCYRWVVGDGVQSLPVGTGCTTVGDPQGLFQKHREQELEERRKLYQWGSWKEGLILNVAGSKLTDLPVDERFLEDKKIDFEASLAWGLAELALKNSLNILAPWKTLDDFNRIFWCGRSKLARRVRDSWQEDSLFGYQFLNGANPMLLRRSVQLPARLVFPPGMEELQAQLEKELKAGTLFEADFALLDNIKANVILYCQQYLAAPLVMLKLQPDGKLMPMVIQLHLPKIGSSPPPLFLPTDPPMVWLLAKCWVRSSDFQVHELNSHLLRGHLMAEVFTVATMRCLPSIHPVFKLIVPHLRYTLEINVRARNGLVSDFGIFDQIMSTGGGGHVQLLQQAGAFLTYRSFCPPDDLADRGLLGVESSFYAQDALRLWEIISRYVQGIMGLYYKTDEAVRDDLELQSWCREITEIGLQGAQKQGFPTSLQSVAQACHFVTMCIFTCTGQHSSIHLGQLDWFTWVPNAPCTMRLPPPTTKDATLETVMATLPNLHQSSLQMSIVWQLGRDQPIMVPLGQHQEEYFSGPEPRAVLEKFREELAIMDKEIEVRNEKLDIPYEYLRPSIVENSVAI

Key:
5-lipoxygenase (5-LO) = 5-lipoxygenase (5-LO) (Homo sapiens, UniProt P09917); experiment: 5-lipoxygenase (5-LO) inhibitory activity, leukotriene B4 production in human peripheral blood mononuclear cells; settings: read-out: Lipoxygenase inhibitory action 50% inhibitory dose (IC50) 5-LO, A23187, leukotriene B4 production
Experimental: A 5-LO inhibitory activity was measured by a partially modified process of a process of Carter et al. (Carter G. W, et al, J. Pharmacol. Exp. Ther.: 256, 929-37, 1991). That is, human peripheral blood mononuclear cells and each of test compounds dissolved in DMSO (final concentration: 1%) were preincubated (37° C., 15 minutes) in a Hanks' balanced salt solution and 30 μM A23187 was further added, followed by incubation (37° C., 30 minutes). The amount of leukotriene B4 produced as a result of incubation was determined by enzyme immunoassay and a 50% production inhibitory concentration (μM) against 5-LO of each test compound was calculated.

[1] = test system: lipid peroxidation activity in a rat brain homogenate; experiment: In vitro lipid peroxidation inhibition (rat brain homogenate, thiobarbituric acid process); settings: read-out: In vitro lipid peroxidation inhibition 50% inhibitory concentration (IC50 μM), 500 μM cysteine, 5 μM sulfuric acid monobasic iron, 100 mM KCl, 37° C. for 30 minutes
[2] = biological target: 15-LO obtained from reticulocyte of rabbit (Oryctolagus cuniculus, UniProt P12530); experiment: 15-lipoxygenase (15-LO) inhibitory activity, 15-HETE production; settings: read-out: Lipoxygenase inhibitory action 50% inhibitory dose (IC50) 15-LO, 15-LO from reticulocyte of rabbit, linoleic acid
Experimental: A 15-LO inhibitory activity was measured by a partially modified process of a process of Auerbach et al. (Auerbach B. J, et al., Anal. Biochem.: 201, 375-80, 1992). That is, 15-LO obtained from reticulocyte of rabbit and each of test compounds dissolved in DMSO (final concentration: 1%) were preincubated (4° C., 15 minutes) in phosphoric acid buffer (pH 7.4) and 256 μM linoleic acid was further added, followed by incubation (4° C., 10 minutes). The amount of 15-HETE produced as a result of incubation was determined by spectrophotometry (OD660nm) and 50% production inhibitory concentration (μM) against 15-LO of each test compound was calculated. Compounds (R-3) and (R-4) (edaravone) of the following formulas were used as a control drug.

[3] = test system: lipid peroxidation activity of each tissue homogenate (brain, heart and kidney); experiment: Tissue migration properties: ex vivo lipid peroxidation inhibition in brain, heart and kidney homogenates; settings: SD male rats, 100 mg/kg intraperitoneally, 30 minutes after administration
male mice = experiment: Acute oral toxicity, single oral dose, mortality rate after 7 days; format: in vivo; settings: observed for 7 days
[4] = test system: abnormal behavior and fatality due to ferrous chloride; experiment: In vivo antioxidative activity: ferrous chloride administration into spinal subarachnoid cavity of mice; settings: score after 60 minutes
Experimental: An in vivo antioxidative activity of the compounds of the present invention was evaluated from an abnormal behavior due to administration of ferrous chloride into spinal subarachnoid cavity of mice as well as an inhibitory effect of a fatality rate according to the process described in J. Med. Chem., 1997, Vol. 40, p. 559-573. Using Slc:ICR male mice (one group: 3 to 7 mice, 5 weeks old) (available from Nippon SLC Co., Ltd.), 5 μl of a 50 mM ferrous chloride physiological saline solution was administered to the spinal canal through the space between the fifth lumbar vertebrae and the sixth lumbar vertebrae. 20 to 60 minutes after administration of ferrous chloride, symptoms were observed and a score after 60 minutes was determined from symptoms shown in Table 32. Each of test compounds was dissolved or suspended in a physiological saline solution or a 1% poly oxy ethylene hydrogenated castor oil (NIKKOL HCO-60, manufactured by Nikko Chemicals Co., Ltd.) physiological saline solution and the resulting solution or suspension was intraperitoneally or orally administered 30 minutes before administration of ferrous chloride. a 50% inhibitory dose (hereinafter abbreviated to ID50) of the compounds of the present invention was determined from the score of a control group (physiological saline administration group) and the score of a test compound administration group. […]

**Q.** How did the pIC50 (5-lipoxygenase (5-LO)) turn out when `Cc1c(C)c2c(c(C)c1N)CC(C)(CN1CCc3c([nH]c4ccccc34)C1)O2` (stereo not drawn) was run?
**A.** Its pIC50 is 5.55.

**Q.** And the IC50 [1]?
**A.** The IC50 was 0.34 µM.

**Q.** What about the pIC50 [2] of the same compound?
**A.** The pIC50 was 5.80.

**Q.** And the “Ex vivo lipid peroxidation inhibition inhibition ratio (%) Brain” value ([3]; brain homogenate)?
**A.** The value was 98%.

**Q.** What about the “Ex vivo lipid peroxidation inhibition inhibition ratio (%) Heart” value ([3]; heart homogenate) of the same compound?
**A.** The value was 90%.

**Q.** And the “Ex vivo lipid peroxidation inhibition inhibition ratio (%) Kidney” value ([3]; kidney homogenate)?
**A.** Its value is 94%.

**Q.** And the “Mouse acute oral toxicity (LD50)” value (male mice)?
**A.** Its value is over 300 mg/kg.

**Q.** What about the “In vivo antioxidation action 50% inhibitory concentration (ID50), Intraperitoneal administration” value ([4]; intraperitoneal administration 30 minutes before ferrous chloride into spinal canal) of the same compound?
**A.** Its value is 5.4 mg/kg.

**Q.** And the “In vivo antioxidation action 50% inhibitory concentration (ID50), Oral administration” value ([4]; oral administration 30 minutes before ferrous chloride into spinal canal)?
**A.** Its value is 14 mg/kg.
